{"sequences": {"note": "Chains of the proteins cited; added tags and fusions are not shown. Residues count along the entry.", "UniProt P03372, 311-547": "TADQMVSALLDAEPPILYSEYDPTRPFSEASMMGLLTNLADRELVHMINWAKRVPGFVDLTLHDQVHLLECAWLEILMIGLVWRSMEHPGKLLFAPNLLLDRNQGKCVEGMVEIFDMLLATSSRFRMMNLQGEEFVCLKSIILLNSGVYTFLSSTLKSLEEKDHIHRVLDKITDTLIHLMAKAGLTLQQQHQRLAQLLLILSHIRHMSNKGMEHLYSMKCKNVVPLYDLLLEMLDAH", "UniProt P03372, whole entry": "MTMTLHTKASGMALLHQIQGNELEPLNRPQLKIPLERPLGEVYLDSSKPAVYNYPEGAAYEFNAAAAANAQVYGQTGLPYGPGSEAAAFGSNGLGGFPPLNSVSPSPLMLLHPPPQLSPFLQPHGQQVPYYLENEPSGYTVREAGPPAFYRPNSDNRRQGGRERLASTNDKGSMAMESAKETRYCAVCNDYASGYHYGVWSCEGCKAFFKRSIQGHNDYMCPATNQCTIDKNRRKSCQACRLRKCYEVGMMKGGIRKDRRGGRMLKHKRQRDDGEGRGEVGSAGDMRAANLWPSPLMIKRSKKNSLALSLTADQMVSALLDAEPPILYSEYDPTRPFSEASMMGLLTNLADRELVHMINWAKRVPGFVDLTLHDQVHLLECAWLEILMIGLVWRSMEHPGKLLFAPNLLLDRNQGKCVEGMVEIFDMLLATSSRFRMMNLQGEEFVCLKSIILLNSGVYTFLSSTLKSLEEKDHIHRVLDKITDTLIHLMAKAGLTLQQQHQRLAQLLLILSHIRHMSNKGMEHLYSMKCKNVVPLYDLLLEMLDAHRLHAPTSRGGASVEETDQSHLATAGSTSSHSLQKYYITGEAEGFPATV"}, "source": "patent US10130617B2", "about": "“Chemical compounds” (AstraZeneca AB, priority 2013, dated 2018)", "key": {"[1]": {"biological_target": "recombinant human Estrogen Receptor alpha ligand binding domain (ER alpha-LBD (GST)) (Homo sapiens (Human), UniProt P03372)", "test": "ERα Binding Assay (LanthaScreen TR-FRET competition)"}, "[2]": {"biological_target": "Estrogen Receptor (ERα receptor level) in MCF-7 human ductal carcinoma breast cell line (Homo sapiens (Human), UniProt P03372)", "test": "MCF-7 ER Down Regulation Assay (immuno-fluorescence)", "assay_type": "cell-based", "protocol": "MCF-7 ER Down Regulation Assay\nThe ability of compounds to down-regulate Estrogen Receptor (ER) numbers was assessed in a cell based immuno-fluorescence assay using the MCF-7 human ductal carcinoma breast cell line. […] Following cell seeding, plates were incubated overnight at 37° C., 5% CO2 (Liconic carousel incubator). […] The Echo uses acoustic technology to perform direct microplate-to-microplate transfers of DMSO compound solutions to assay plates. The system can be programmed to transfer volumes as low as 2.5 nL in multiple increments between microplates and in so doing generates a serial dilution of compound in the assay plate which is then back-filled to normalise the DMSO concentration across the dilution range. Compounds were dispensed onto the cell plates with a compound source plate prepared as above producing a 12 pt duplicate 3 μM to 3 pM dose range with 3 fold dilutions and one final 10 fold dilution using the Integrated Echo 2 workcell. […] The fixing method described above was carried out on the Integrated Echo 2 workcell. Immunostaining was performed using an automated AutoElisa workcell. […] The plates were incubated overnight at 4° C. […] The mean total intensity was normalized for cell number giving the total intensity per cell. The data was exported into a suitable software package (such as Origin) to perform curve fitting analysis."}}, "note": "pIC50: −log10 of the molar value. Like-named read-outs stand apart in the source and are kept apart here."}
{"smiles": "C[C@@H]1Cc2c([nH]c3ccccc23)[C@@H](c2ccc(/C=C/C(=O)O)cc2)N1CC(C)(C)F", "note": "[Example 2, (E)-3-(4-((1R,3R)-2-(2-Fluoro-2-methylpropyl)-3-methyl-2,3,4,9-tetrahydro-1H-pyrido[3,4-b]indol-1-yl)phenyl)acrylic acid]", "values": [{"measurement": "pIC50", "setting": "[1]; read-out: ER binding IC50 value", "value": 9.00}, {"measurement": "pIC50", "setting": "[2]; MCF-7 cells; single experiment or average of repeats", "value": 9.07}]}
{"smiles": "C[C@H](CF)CN1[C@H](c2ccc(/C=C/C(=O)O)cc2)c2[nH]c3ccccc3c2C[C@H]1C", "note": "[Example 4, (E)-3-(4-((1R,3R)-2-((S)-3-fluoro-2-methylpropyl)-3-methyl-2,3,4,9-tetrahydro-1H-pyrido[3,4-b]indol-1-yl)phenyl)acrylic acid]", "values": [{"measurement": "DC50", "setting": "[2]; MCF-7 cells; single experiment or average of repeats; read-out: ER down regulation IC50 value", "value": 0.99, "unit": "nM"}]}
{"smiles": "C[C@@H]1Cc2c([nH]c3ccccc23)[C@@H](c2c(F)cc(/C=C/C(=O)O)cc2F)N1CC(C)(C)F", "note": "[Example 1, (E)-3-(3,5-Difluoro-4-((1R,3R)-2-(2-fluoro-2-methylpropyl)-3-methyl-2,3,4,9-tetrahydro-1H-pyrido[3,4-b]indol-1-yl)phenyl)acrylic acid]", "values": [{"measurement": "pIC50", "setting": "[1]", "value": "> 9.19"}, {"measurement": "DC50", "setting": "[2]; read-out: ER down regulation IC50 value; MCF-7 cells; single experiment or average of repeats", "value": 0.14, "unit": "nM"}]}
